Target: T1, serotonin reuptake (Rattus norvegicus, UniProt P31652)
T1 construct: synaptosomes prepared from the rat brain; from tissue; host or cells: rat brain synaptosomes
Assay: Serotonin reuptake inhibition assay ([3H]serotonin, synaptosomes prepared from the rat brain)
Assay type: biochemical
Conditions: read-out: Percent inhibition (10^−7 M)

Amino acid sequences for entries named in this document (tags omitted).
UniProt P31652, whole entry: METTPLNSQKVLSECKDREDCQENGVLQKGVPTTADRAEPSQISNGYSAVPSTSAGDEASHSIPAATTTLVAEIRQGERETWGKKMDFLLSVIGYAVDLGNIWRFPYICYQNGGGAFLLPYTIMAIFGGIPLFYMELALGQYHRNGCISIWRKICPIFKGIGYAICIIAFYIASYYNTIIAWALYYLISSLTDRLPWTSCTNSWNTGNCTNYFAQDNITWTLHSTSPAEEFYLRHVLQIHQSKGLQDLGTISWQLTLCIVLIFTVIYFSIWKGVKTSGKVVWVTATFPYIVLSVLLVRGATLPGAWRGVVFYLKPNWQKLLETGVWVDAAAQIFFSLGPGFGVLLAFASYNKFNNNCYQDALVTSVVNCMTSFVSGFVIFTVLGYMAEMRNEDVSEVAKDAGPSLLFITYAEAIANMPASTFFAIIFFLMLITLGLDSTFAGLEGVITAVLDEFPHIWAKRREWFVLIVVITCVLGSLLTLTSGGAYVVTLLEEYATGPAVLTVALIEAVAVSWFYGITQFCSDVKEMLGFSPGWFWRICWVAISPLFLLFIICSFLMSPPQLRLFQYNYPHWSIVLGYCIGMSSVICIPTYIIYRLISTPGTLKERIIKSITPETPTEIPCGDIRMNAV

inhibition at 0.1 µM: 97%
SMILES: Fc1ccc([C@@H]2CCNC[C@H]2COc2ccc3c(c2)OCO3)cc1 [Paroxetine, reference compound]

Reference: patent publication US20110092703A1, “P2X4 RECEPTOR ANTAGONIST” (NIPPON CHEMIPHAR CO., LTD., priority 2007, published 2011)
